For this test, the target named is ESR1 (Homo sapiens, UniProt P03372). Put plainly: ESR1 expression in MCF7 cells (immunoblot, mRNA, MG132 pre-treatment). It counts as cell-based. The following applies: MG132 1 hour pre-treatment, 6 hours ligand. Here is the method: Protein expression was analyzed as described (Wittmann et al., (2007) Cancer Res 67 (19):9549-9560) using antibodies purchased from Sigma-Aldrich—A5441 (β-actin) and Santa Cruz Biotechnology—sc-6259 (cytokeratin 18), sc-20680 (lamin A), sc-5546 (α-tubulin) and sc-8005 (ESR1).
For FIG. 6A, MCF7 cells were treated for 24 hours with ICI (10^−13-10^−7 M) or RAD1901 (RAD), (10^−11-10^−5 M). Expression of ESR1 and loading control cytokeratin 18 (CK18—FIG. 7A) in whole cell extracts were detected by immunoblot (top). ESR1 levels relative to CK18 were quantitated by densitometry using Adobe Photoshop (bottom). For FIG. 6B, MCF7 cells were plated as in FIG. 5B prior to 1 hour pre-treatment with vehicle or MG132 (10 μg/ml), followed by 6 hours of treatment with 10^−7 M vehicle, ICI, Ral or RAD1901 (RAD), (10^−8 or 10^−6 M). ESR1 expression was detected as in FIG. 6A. For FIGS. 6C-6D, LTED MCF7 cells were plated in phenol red free media supplemented with FBS that was stripped of growth factors twice using charcoal. For FIG. 6C, after 48 hours, cells were treated for 24 hours with E2 (10^−7 M) or SERDs (10^−6 M) and ESR1 was analyzed as in FIG. 6A. For FIG. 6D, LTED MCF7 cells were treated with ICI or RAD1901 (RAD), (10^−11-10^−6 M) on days 1, 4, and 6 of an 8 day proliferation assay and analyzed as in FIG. 5.
(A western blot detects proteins with antibodies after separation by electrophoresis.)

Protein sequences, listed by entry. Tags and fused reporters are not part of them.
UniProt P03372, whole entry: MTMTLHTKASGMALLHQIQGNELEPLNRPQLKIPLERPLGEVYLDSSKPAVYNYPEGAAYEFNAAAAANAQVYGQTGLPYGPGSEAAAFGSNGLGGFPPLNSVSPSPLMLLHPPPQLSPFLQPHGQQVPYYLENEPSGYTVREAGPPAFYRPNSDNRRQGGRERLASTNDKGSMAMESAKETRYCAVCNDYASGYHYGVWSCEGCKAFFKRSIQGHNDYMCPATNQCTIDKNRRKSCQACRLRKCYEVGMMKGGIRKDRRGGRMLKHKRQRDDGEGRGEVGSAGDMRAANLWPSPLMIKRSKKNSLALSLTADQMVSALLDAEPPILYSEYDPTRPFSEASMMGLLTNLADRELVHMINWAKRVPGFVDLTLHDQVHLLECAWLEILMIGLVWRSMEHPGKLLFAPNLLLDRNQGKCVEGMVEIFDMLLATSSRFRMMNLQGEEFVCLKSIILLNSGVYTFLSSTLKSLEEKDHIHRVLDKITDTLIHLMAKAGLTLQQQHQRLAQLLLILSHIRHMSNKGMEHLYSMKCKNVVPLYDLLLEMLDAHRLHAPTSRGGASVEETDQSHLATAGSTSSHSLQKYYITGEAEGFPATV

The values below come from patent US10420734B2, “Method of treating cancer using selective estrogen receptor modulators” (Duke University, priority 2014, dated 2019).

Consider `C[C@]12CC[C@@H]3c4ccc(O)cc4C[C@@H](CCCCCCCCC[S+]([O-])CCCC(F)(F)C(F)(F)F)[C@H]3[C@@H]1CC[C@@H]2O` (stereo partly shown) [ICI, ICI 182,780, reference compound], for which the “downregulation of ESR1 after pre-treatment with proteasome inhibitor MG132” value was “completely blocked”.
